The text below walks through data of patent publication US20020022052A1, “Transdermal delivery system” (priority 2000, published 2002).

This data set is described as follows: Maximum achieved massage induced skin load (400 g vibrator, 10 minutes). Conditions: particle size 0.4 um 20%, 0.3 um 40%, 0.2 um 20%, <0.1 um 20%.

Consider zinc gluconate, for which the Maximum loading came out at 2.3 micrograms/cm^2 (carrier Eutanol G) and 1.4 mg/cm^2 (carrier Nil (dry powder)).
